# Laboratory results as given in paper PMC11602913, “Lead-it-EAZY! GMP-compliant production of [^212Pb]Pb-PSC-PEG2-TOC” (EJNMMI Radiopharmacy and Chemistry, 2024).
# System: neuroendocrine tumours (NET)
# Experiment: Individual patient application of the 212Pb-labelled peptide
# Type: in vivo, human
# Conditions: patients, doses of 1–1.5 MBq/kg
# Protocol: The precursor concentration (0.1 µg/MBq) results in a maximum mass of 50 µg (31.7 nmol) for 500 MBq ^212Pb-labelled peptide, which is half to the mass used for routine ^177Lu-preparations with 5000 MBq (Brogsitter et al. [2017]). At this concentration, any ^212Bi generated during the reaction time by free ^212Pb is rebound by the precursor (Li et al. [2023]). Typically, doses of 1–1.5 MBq/kg were administered per patient. […] The detailed results of patient treatments will be discussed in a further publication.
substance,measurement,value
[^212Pb]Pb-PSC-PEG2-TOC [[^212Pb]Pb-VMT-α-NET],adverse effects,only weak adverse effects
